## Antibody variant affinities, Ab-95 light chain, assay 2

The target is the same throughout: PDVDLGDISGINAS, from the HR2 region of SARS-CoV-2 spike.

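In library AAYL52, one, two or three CDR residues were substituted; doubles and triples were drawn at random. The assay is AlphaSeq: two haploid yeast populations carry antibody and antigen on their surface. The frequency of each diploid, read from paired DNA barcodes, reflects how well the two displayed proteins bind. Each replicate has its own calibration line, from reference interactions of the BCL2 family. Mating was done three times.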

Parent scFv Ab-95: VH joined to VL by a (GGGGS)3 linker. Changes lie in the light chain CDRs alone.
VH: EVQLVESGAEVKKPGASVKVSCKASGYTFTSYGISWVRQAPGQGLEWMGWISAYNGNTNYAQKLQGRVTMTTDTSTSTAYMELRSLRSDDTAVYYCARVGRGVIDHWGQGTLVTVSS
VL: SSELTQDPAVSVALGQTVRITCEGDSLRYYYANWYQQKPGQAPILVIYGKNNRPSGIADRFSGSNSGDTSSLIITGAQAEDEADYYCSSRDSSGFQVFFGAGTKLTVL

Variants are written as CDR1, CDR2 and CDR3 of the light chain (limits as in the source). Parent: EGDSLRYYYAN, GKNNRPS, SSRDSSGFQVF.
Affinities are written as log10 Kd with Kd in nM; a lower number is a better binder.
A pair that was not seen in that replicate is written "ND"; this usually means weak binding, but a binder can also be missed.

| CDR-L1 | CDR-L2 | CDR-L3 | replicates, log10 nM | empty controls |
|---|---|---|---|---|
| EGDSLRYYYAN | GKNYSPS | SSRDSSGFQVF | ND 4.13 ND | 0 of 9 |
| EGDSLRYYYAN | GKNNRPW | SSRDSSGFQVF | 2.44 2.47 2.17 | 2 of 9 (5.19) |
| EGESLRYYYAN | RKNNRPS | SMRDSSGFQVF | ND 3.40 ND | 1 of 9 (4.89) |
| ETDSLRYYYDN | GKNNRPS | SSRDSSGFAVF | 4.01 4.31 ND | 3 of 9 (3.40) |
| EGDSLRLYYAN | GKNCRPS | SSRDSSGFQVA | 3.51 3.54 4.01 | 5 of 9 (4.16) |
| EGDSLVYKYIN | GKNNRPS | SSRDSSGFQVF | 2.35 2.53 2.09 | 3 of 9 (3.93) |
| EGDSLRYYYAN | GPNNRPS | SSRDVGGFQVF | 3.09 2.40 2.70 | 1 of 9 (5.39) |
| EGYSLRYYYAN | GKNERPS | SSRGSSGFQVF | 1.75 2.18 1.54 | 2 of 9 (3.04) |
| EGDSLRYYYAN | GKNNAHS | SGRDSSGFQVF | ND 4.16 3.39 | 1 of 9 (3.49) |
| EGDSLRYYYAM | WKNNRPS | SSRDSSVFQVF | ND ND ND | 2 of 9 (3.62) |
| EGDSLRYYYAN | GKNNRPP | SSRDPSGFAVF | 3.44 3.10 2.62 | 4 of 9 (4.31) |
| EGDSLRYYYAN | GKINRPS | SSLQSSGFQVF | 3.46 ND ND | 1 of 9 (3.84) |
| EGDSLRYYQAN | GKNNRPS | ACRDSSGFQVF | 1.40 1.18 0.85 | 3 of 9 (3.68) |
| EGDSLRYYYAN | GKNNRPS | SSVDSSMRQVF | ND ND ND | 3 of 9 (3.52) |
| CGPSLRYYYAN | GKNMRPS | SSRDSSGFQVF | 2.51 1.96 2.38 | 3 of 9 (3.86) |
| EGDSLRYYYAN | GFNNAPS | SSRDSSGFQVF | ND 4.16 3.51 | 3 of 9 (3.37) |
| EGDSLRYYYAN | YKNNRPS | SCRDSSCFQVF | 3.81 3.59 3.27 | 5 of 9 (4.04) |
| EGDSLRYYYAN | GRNNRPS | SSRDSGGFHVF | 2.97 3.17 4.13 | 0 of 9 |
| EGDSHRYYYHN | GKNNRPW | SSRDSSGFQVF | 3.95 4.66 4.13 | 1 of 9 (3.56) |
| EGDSLRYYEAN | GKINRPS | SSRDSSGFRVF | 2.71 2.40 1.99 | 3 of 9 (3.46) |
| EGDSLRYYYAN | GKNNRHS | SSRDSEGFTVF | 3.15 3.19 ND | 6 of 9 (3.83) |
| EGDSLRYFYAN | GKNNRPS | SSRDSQGFQVF | 3.57 2.37 ND | 5 of 9 (4.09) |
| EGDSLRYVYAN | GKNNRPS | SSRKSSGFKVF | 3.54 3.10 2.35 | 0 of 9 |
| EGDSLRYYYAN | NKNNRPS | SSRDSHGFSVF | 3.70 ND ND | 0 of 9 |
| EGCCLRYYYAN | GKNNRPS | SSTDSSGFQVF | 4.57 3.37 ND | 2 of 9 (3.51) |
| EGDSLRYYYYN | GKNTRPS | SSLDSSGFQVF | 2.93 ND ND | 2 of 9 (3.78) |
| EGDSLRYYYAN | GKNLRPS | SSRDSSWSQVF | 2.29 2.19 2.75 | 3 of 9 (4.35) |
| EGDSKRYYYAN | GKNNRPS | SMRDSSGFQSF | 4.31 ND ND | 0 of 9 |
| EWDSLRYYGFN | GKNNRPS | SSRDSSGFQVF | ND ND ND | 1 of 9 (3.25) |
| ENDSLIYYYAN | GKNNRPS | SSRDSWGFQVF | ND ND ND | 1 of 9 (4.68) |
| EGVSLRYYYAN | GKNNRPW | SSRDSSGFQVT | ND ND ND | 2 of 9 (4.24) |
| EGDSLRYYYAN | IKNNRPS | VSRDSSGAQVF | 3.55 3.88 ND | 3 of 9 (4.32) |
| EGDSLRYYYAN | GKNNRPS | SSRSFSGFQVI | 2.64 2.35 2.24 | 4 of 9 (3.50) |
| EGDSLRYYYSN | SKNNRPS | SSRDSSGFQVN | ND 3.90 ND | 2 of 9 (4.78) |
| EGDSLRYYYEN | GKNNRPS | SLRDSSGFQLF | ND 4.21 4.50 | 1 of 9 (4.39) |
| EGDLLRYYYAN | GKNNRKS | SSRDSSGFQVI | ND ND 2.87 | 1 of 9 (3.59) |
| EGVSLTYYYAN | GKNNRPS | SSRDSSYFQVF | 2.43 2.72 2.47 | 2 of 9 (3.26) |
| EGNSLRYYYAN | GKNNRPS | SSDISSGFQVF | ND 4.58 ND | 1 of 9 (4.43) |
| EGDNLRYYYAN | GLNNRPS | SSRDWSGFQVF | 3.17 ND ND | 2 of 9 (4.30) |
| EGDSLRYYYAN | GKNNRPS | SSRDSGGFQVF | 4.61 2.37 2.83 | 1 of 9 (3.75) |
| EGDSLRYYYAN | IKNNRPS | MSRDSSGFQVF | ND 4.37 ND | 3 of 9 (4.27) |
| EGDSLRYYYAN | GKNNWDS | SARDSSGFQVF | 3.56 3.51 4.30 | 1 of 9 (3.59) |
| HWDSLRYYYAN | GKNNRPS | SSRDSSGFQVS | 3.79 3.30 2.42 | 1 of 9 (3.95) |

Top 7 of the variants detected in all replicates, tightest first:

| CDR-L1 | CDR-L2 | CDR-L3 | replicates, log10 nM | empty controls |
|---|---|---|---|---|
| EGDSLRYYQAN | GKNNRPS | ACRDSSGFQVF | 1.40 1.18 0.85 | 3 of 9 (3.68) |
| EGYSLRYYYAN | GKNERPS | SSRGSSGFQVF | 1.75 2.18 1.54 | 2 of 9 (3.04) |
| CGPSLRYYYAN | GKNMRPS | SSRDSSGFQVF | 2.51 1.96 2.38 | 3 of 9 (3.86) |
| EGDSLVYKYIN | GKNNRPS | SSRDSSGFQVF | 2.35 2.53 2.09 | 3 of 9 (3.93) |
| EGDSLRYYYAN | GKNNRPW | SSRDSSGFQVF | 2.44 2.47 2.17 | 2 of 9 (5.19) |
| EGDSLRYYEAN | GKINRPS | SSRDSSGFRVF | 2.71 2.40 1.99 | 3 of 9 (3.46) |
| EGDSLRYYYAN | GKNNRPS | SSRSFSGFQVI | 2.64 2.35 2.24 | 4 of 9 (3.50) |

Nonspecific signal, from three strains lacking the peptide, appeared in 28% of pairings of library AAYL52, centred on 3.91 (5% of these signals below 2.90); values are not corrected for it. The control count says in how many pairings with the empty strains this scFv gave a signal, with their mean in brackets.
For reference, the parent read 2.31 as the reference entry and 2.25 as a member of this library.

Source: Engelhart et al. 2022 (doi:10.1038/s41597-022-01779-4), MIT Lincoln Laboratory and A-Alpha Bio; data file from the FLAb repository.